Measured values from patent US8039589 (MAYO FOUNDATION FOR MEDICAL EDUCATION AND RESEARCH, dated 2011).

Molecular target: T1, PD-1Ig (extracellular domain of mouse PD-1 linked to the Fc portion of mouse IgG2a) (mouse, UniProt Q02242 25-169)
T1 construct: extracellular domain; Coated on ELISA plates and immobilized on the CM5 chip; also called mPD-1; not shown: Fc portion of mouse IgG2a
T1 sequence (looked up): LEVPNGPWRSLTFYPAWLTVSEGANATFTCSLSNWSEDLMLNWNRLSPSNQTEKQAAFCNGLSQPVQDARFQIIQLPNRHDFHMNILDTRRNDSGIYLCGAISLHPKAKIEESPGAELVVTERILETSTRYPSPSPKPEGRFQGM
Assay: capture ELISA, PD-1Ig coated

ELISA (%) specific binding activity relative to wild type B7-DCIg: 0.3%
B1: mouse B7-DCIg mutant D111S (Fc fusion)
chain: LFTVTAPKEVYTVDVGSSVSLECDFDRRECTELEGIRASLQKVENDTSLQSERATLLEEQLPLGKALFHIPSVQVRDSGQYRCLVICGAAWSYKYLTVKVKASYMRIDTRILEVPGTGEVQLTCQARGYPLAEVSWQNVSVPANTSHIRTPEGLYQVTSVLRLKPQPSRNFSCMFWNAHMKELTSAIIDPLSRMEPKVPRTW
notes: not shown: CH2-CH3 portion of human IgG1
